Measured values as given in US9278960B2, “Quinoline carboxamide and quinoline carbonitrile derivatives as mGluR2-negative allosteric modulators, compositions, and their use” (Merck Sharp & Dohme Corp., priority 2011, dated 2016).

Chains of the proteins cited; added tags and fusions are not shown. Residues count along the entry.
UniProt Q14416, 19-872: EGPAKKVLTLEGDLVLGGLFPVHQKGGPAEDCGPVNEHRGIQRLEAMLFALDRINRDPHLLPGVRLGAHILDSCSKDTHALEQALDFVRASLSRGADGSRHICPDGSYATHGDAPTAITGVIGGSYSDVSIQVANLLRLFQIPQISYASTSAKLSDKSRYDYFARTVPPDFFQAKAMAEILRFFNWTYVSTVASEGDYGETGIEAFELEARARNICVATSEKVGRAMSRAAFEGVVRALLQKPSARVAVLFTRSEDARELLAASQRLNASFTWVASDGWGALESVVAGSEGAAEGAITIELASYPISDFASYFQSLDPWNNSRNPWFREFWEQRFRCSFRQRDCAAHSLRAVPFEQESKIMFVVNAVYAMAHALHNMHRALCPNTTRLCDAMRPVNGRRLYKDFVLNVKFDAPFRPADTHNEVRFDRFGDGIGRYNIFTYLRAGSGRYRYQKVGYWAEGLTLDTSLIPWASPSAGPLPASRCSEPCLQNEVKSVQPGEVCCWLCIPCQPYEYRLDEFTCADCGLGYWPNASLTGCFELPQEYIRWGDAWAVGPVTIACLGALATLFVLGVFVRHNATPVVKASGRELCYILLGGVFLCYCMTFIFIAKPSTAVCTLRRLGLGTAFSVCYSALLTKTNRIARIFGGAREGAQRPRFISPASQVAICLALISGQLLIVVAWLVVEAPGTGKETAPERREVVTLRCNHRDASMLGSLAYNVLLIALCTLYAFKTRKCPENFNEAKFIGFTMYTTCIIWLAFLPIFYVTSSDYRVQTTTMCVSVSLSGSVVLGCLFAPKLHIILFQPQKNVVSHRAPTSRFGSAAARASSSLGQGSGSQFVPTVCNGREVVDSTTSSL

target: human mGluR2 (Homo sapiens (Human), UniProt Q14416); assay: FLIPR Ca2+ mobilization antagonist assay in CHO dhfr- cells expressing recombinant human mGluR2 and Gα16; type: cell-based; details: antagonist response after addition of 2,500 nM glutamate, Fluo-4 AM, FLIPR384

Question: With NC(=O)c1cc(-c2ccc(F)cc2)c2ccc(Cc3ccnc(CO)c3)cc2n1 [Example 6-7, 4-(4-fluorophenyl)-7-{[2-(hydroxymethyl)pyridin-4-yl]methyl} quinoline-2-carboxamide] as the compound, how does the IC50 read?
Answer: 8 nM

Question: How did the IC50 turn out when COc1nccc(Cc2ccc3c(-c4ccc(F)cc4)cc(C(N)=O)nc3c2)c1Cl [Example 6-8, 7-[(3-chloro-2-methoxypyridin-4-yl)methyl]-4-(4-fluorophenyl) quinoline-2-carboxamide] was run?
Answer: 56 nM

Question: For COc1ncc(Cc2ccc3c(-c4ccc(F)cc4)cc(C(N)=O)nc3c2)cn1 [Example 6-9, 4-(4-fluorophenyl)-7-[(2-methoxypyrimidin-5-yl)methyl] quinoline-2-carboxamide], which IC50 is on record?
Answer: 10 nM

Question: With Cc1ccncc1Cc1ccc2c(-c3ccc(F)cc3)cc(C(N)=O)nc2c1 [Example 6-10, 4-(4-fluorophenyl)-7-[(4-methylpyridin-3-yl)methyl] quinoline-2-carboxamide] as the compound, how does the IC50 read?
Answer: 31 nM

Question: For COc1ncc(Cc2ccc3c(-c4ccc(F)cc4)cc(C(N)=O)nc3c2)cn1 [Example 6-11, 4-(4-fluorophenyl)-7-[(2-methoxypyrimidin-5-yl)methyl] quinoline-2-carboxamide], which IC50 is on record?
Answer: 14 nM

Question: How did the IC50 turn out when COc1cncc(Cc2ccc3c(-c4ccc(F)cc4)cc(C(N)=O)nc3c2)c1 [Example 6-12, 4-(4-fluorophenyl)-7-[(5-methoxypyridin-3-yl)methyl] quinoline-2-carboxamide] was run?
Answer: 31 nM

Question: For COc1ccc(Cc2ccc3c(-c4ccc(F)cc4)cc(C(N)=O)nc3c2)cc1 [Example 6-13, 4-(4-fluorophenyl)-7-(4-methoxybenzyl) quinoline-2-carboxamide], which IC50 is on record?
Answer: 76 nM

Question: COc1cc(Cc2ccc3c(-c4ccc(F)cc4)cc(C(N)=O)nc3c2)ccn1 [Example 6-14, 4-(4-fluorophenyl)-7-[(2-methoxypyridin-4-yl)methyl] quinoline-2-carboxamide] was tested. Which IC50 did it give?
Answer: 18 nM

Question: How did the IC50 turn out when Cn1cc(-c2cc(C(N)=O)nc3cc(Cc4cnc(Cl)nc4)ccc23)cn1 [Example 6-15, 7-[(2-chloropyrimidin-5-yl)methyl]-4-(1-methyl-1H-pyrazol-4-yl)quinoline-2-carboxamide] was run?
Answer: 34 nM

Question: With Cn1cc(-c2cc(C(N)=O)nc3cc(Cc4cnc(F)nc4)ccc23)cn1 [Example 6-16, 7-[(2-fluoropyrimidin-5-yl)methyl]-4-(1-methyl-1H-pyrazol-4-yl)quinoline-2-carboxamide] as the compound, how does the IC50 read?
Answer: 76 nM

Question: For COc1ccc(Cc2ccc3c(-c4cnn(C)c4)cc(C(N)=O)nc3c2)cn1 [Example 6-17, 7-[(6-methoxypyridin-3-yl)methyl]-4-(1-methyl-1H-pyrazol-4-yl)quinoline-2-carboxamide], which IC50 is on record?
Answer: 48 nM

Question: Cn1cc(-c2cc(C(N)=O)nc3cc(Cc4ccc(F)c(C(F)(F)F)c4)ccc23)cn1 [Example 6-18, 7-[4-fluoro-3-(trifluoromethyl)benzyl]-4-(1-methyl-1H-pyrazol-4-yl)quinoline-2-carboxamide] was tested. Which IC50 did it give?
Answer: 35 nM

Question: With COc1ncc(Cc2ccc3c(-c4cnn(C)c4)cc(C(N)=O)nc3c2)cn1 [Example 6-19, 7-[(2-methoxypyrimidin-5-yl)methyl]-4-(1-methyl-1H-pyrazol-4-yl)quinoline-2-carboxamide] as the compound, how does the IC50 read?
Answer: 41 nM

Question: Cn1cc(-c2cc(C(N)=O)nc3cc(Cc4ccnc(C#N)c4)ccc23)cn1 [Example 6-20, 7-[(2-cyanopyridin-4-yl)methyl]-4-(1-methyl-1H-pyrazol-4-yl)quinoline-2-carboxamide] was tested. Which IC50 did it give?
Answer: 15 nM

Question: For Cn1cc(-c2cc(C(N)=O)nc3cc(Cc4ccnc(C(F)(F)F)c4)ccc23)cn1 [Example 6-21, 4-(1-methyl-1H-pyrazol-4-yl)-7-{[2-(trifluoromethyl)pyridin-4-yl]methyl} quinoline-2-carboxamide], which IC50 is on record?
Answer: 6 nM

Question: For Cn1cc(-c2cc(C(N)=O)nc3cc(Cc4cccnc4C(F)(F)F)ccc23)cn1 [Example 6-22, 4-(1-methyl-1H-pyrazol-4-yl)-7-{[2-(trifluoromethyl)pyridin-3-yl]methyl} quinoline-2-carboxamide], which IC50 is on record?
Answer: 42 nM

Question: With Cn1cc(-c2cc(C(N)=O)nc3cc(Cc4cccc(C(F)(F)F)n4)ccc23)cn1 [Example 6-23, 4-(1-methyl-1H-pyrazol-4-yl)-7-{[6-(trifluoromethyl)pyridin-2-yl]methyl} quinoline-2-carboxamide] as the compound, how does the IC50 read?
Answer: 28 nM

Question: With Cc1cc(Cc2ccc3c(-c4cnn(C)c4)cc(C(N)=O)nc3c2)cc(C)n1 [Example 6-24, 7-[(2,6-dimethylpyridin-4-yl)methyl]-4-(1-methyl-1H-pyrazol-4-yl)quinoline-2-carboxamide] as the compound, how does the IC50 read?
Answer: 25 nM

Question: With Cn1cc(-c2cc(C(N)=O)nc3cc(Cc4cc(Cl)nc(C(F)(F)F)c4)ccc23)cn1 [Example 6-25, 7-{[2-chloro-6-(trifluoromethyl)pyridin-4-yl]methyl}-4-(1-methyl-1H-pyrazol-4-yl)quinoline-2-carboxamide] as the compound, how does the IC50 read?
Answer: 7 nM

Question: For Cn1cc(-c2cc(C(N)=O)nc3cc(Cc4cc(C5CC5)nc(C(F)(F)F)c4)ccc23)cn1 [Example 6-26, 7-{[2-cyclopropyl-6-(trifluoromethyl)pyridin-4-yl]methyl}-4-(1-methyl-1H-pyrazol-4-yl)quinoline-2-carboxamide], which IC50 is on record?
Answer: 12 nM

Question: NC(=O)c1cc(-c2ccc(F)cc2)c2cccc(F)c2n1 [Example 7-5, 8-Fluoro-4-(4-fluorophenyl)quinoline-2-carboxamide] was tested. Which IC50 did it give?
Answer: 338 nM

Question: For NC(=O)c1cc(-c2ccc(F)cc2)c2ccc(CN3C(=O)CCC3=O)c(F)c2n1 [Example 7-13, 7-[(2,5-dioxopyrrolidin-1-yl)methyl]-8-fluoro-4-(4-fluorophenyl)quinoline-2-carboxamide], which IC50 is on record?
Answer: 13 nM

Question: Which IC50 does the source give for Cn1cc(-c2cc(C(N)=O)nc3c(F)c(CN4CCO[C@@H](C(F)(F)F)C4)ccc23)cn1 [Example 7-20-A, (R)-8-Fluoro-4-(1-methyl-1H-pyrazol-4-yl)-7-((2-(trifluoromethyl)morpholino)methyl)quinoline-2-carboxamide] here?
Answer: 14 nM

Question: For Cn1cc(-c2cc(C(N)=O)nc3c(F)c(CN4CCO[C@H](C(F)(F)F)C4)ccc23)cn1 [Example 7-20-B, (S)-8-Fluoro-4-(1-methyl-1H-pyrazol-4-yl)-7-((2-(trifluoromethyl)morpholino)methyl)quinoline-2-carboxamide], which IC50 is on record?
Answer: 21 nM

Question: With NC(=O)c1cc(-c2ccc(F)cc2)c2cc(F)c(CN3C(=O)CCC3=O)cc2n1 [Example 7-21, 7-[(2,5-dioxopyrrolidin-1-yl)methyl]-6-fluoro-4-(4-fluorophenyl)quinoline-2-carboxamide] as the compound, how does the IC50 read?
Answer: 21 nM

Question: How did the IC50 turn out when NC(=O)c1cc(-c2ccc(F)cc2)c2c(F)cc(CN3C(=O)CCC3=O)cc2n1 [Example 7-22, 7-[(2,5-dioxopyrrolidin-1-yl)methyl]-5-fluoro-4-(4-fluorophenyl)quinoline-2-carboxamide] was run?
Answer: 74 nM

Question: COc1ncc(Cc2ccc3c(-c4ccc(F)cc4)cc(C(N)=O)nc3c2F)cn1 [Example 7-23, 8-fluoro-4-(4-fluorophenyI)-7-[(2-methoxypyrimidin-5-yl)methyl]quinoline-2-carboxamide] was tested. Which IC50 did it give?
Answer: 10 nM

Question: How did the IC50 turn out when CCC(O)(c1cn(Cc2ccc3c(-c4ccc(F)cc4)cc(C(N)=O)nc3c2F)cn1)C(F)(F)F (centres unmarked) [Example 7-24, 8-fluoro-4-(4-fluorophenyl)-7-({4-[1-hydroxy-1-(trifluoromethyl)propyl]-1H-imidazol-1-yl}methyl)quinoline-2-carboxamide] was run?
Answer: 17 nM

Question: With NC(=O)c1cc(-c2ccc(F)cc2)c2ccc(Cc3cnc(C4CC4)nc3)c(F)c2n1 [Example 7-25, 7-[(2-cyclopropylpyrimidin-5-yl)methyl]-8-fluoro-4-(4-fluorophenyl)quinoline-2-carboxamide] as the compound, how does the IC50 read?
Answer: 20 nM

Question: With NC(=O)c1cc(-c2ccc(F)cc2)c2ccc(Cc3ccc(CO)nc3)c(F)c2n1 [Example 7-26, 8-fluoro-4-(4-fluorophenyl)-7-{[6-(hydroxymethyl)pyridin-3-yl]methyl}quinoline-2-carboxamide] as the compound, how does the IC50 read?
Answer: 15 nM

Question: With Cn1cc(-c2cc(C(N)=O)nc3c(F)c(CN4CCC(F)CC4)ccc23)cn1 [Example 7-27, 8-fluoro-7-[(4-fluoropiperidin-1-yl)methyl]-4-(1-methyl-1H-pyrazol-4-yl)quinoline-2-carboxamide] as the compound, how does the IC50 read?
Answer: 169 nM

Question: CCC(O)(c1cn(Cc2ccc3c(-c4ccc(OC)c(F)c4)cc(C(N)=O)nc3c2F)cn1)C(F)(F)F (centres unmarked) [Example 7-28, 8-fluoro-4-(3-fluoro-4-methoxyphenyl)-7-({4-[1-hydroxy-1-(trifluoromethyl)propyl]-1H-imidazol-1-yl}methyl)quinoline-2-carboxamide] was tested. Which IC50 did it give?
Answer: 10 nM

Question: With CCC(O)(c1cn(Cc2ccc3c(-c4ccc(OC)cc4F)cc(C(N)=O)nc3c2F)cn1)C(F)(F)F (centres unmarked) [Example 7-29, 8-fluoro-4-(2-fluoro-4-methoxyphenyl)-7-({4-[1-hydroxy-1-(trifluoromethyl)propyl]-1H-imidazol-1-yl}methyl)quinoline-2-carboxamide] as the compound, how does the IC50 read?
Answer: 8 nM

Question: For COc1ncccc1Cc1ccc2c(-c3cnn(C)c3)cc(C(N)=O)nc2c1F [Example 7-30, 8-fluoro-7-[(2-methoxypyridin-3-yl)methyl]-4-(1-methyl-1H-pyrazol-4-yl)quinoline-2-carboxamide], which IC50 is on record?
Answer: 21 nM

Question: Which IC50 does the source give for Cn1cc(-c2cc(C(N)=O)nc3c(F)c(Cc4ccc(C(F)(F)F)nc4)ccc23)cn1 [Example 7-31, 8-fluoro-4-(1-methyl-1H-pyrazol-4-yl)-7-{[6-(trifluoromethyl)pyridin-3-yl]methyl}quinoline-2-carboxamide] here?
Answer: 28 nM

Question: For Cn1cc(-c2cc(C(N)=O)nc3c(F)c(CN4C(=O)NC(C)(C)C4=O)ccc23)cn1 [Example 7-32, 7-[(4,4-dimethyl-2,5-dioxoimidazolidin-1-yl)methyl]-8-fluoro-4-(1-methyl-1H-pyrazol-4-yl)quinoline-2-carboxamide], which IC50 is on record?
Answer: 214 nM

Question: For Cn1cc(-c2cc(C(N)=O)nc3c(F)c(Cc4cnc(C5CC5)nc4)ccc23)cn1 [Example 7-33, 7-[(2-cyclopropylpyrimidin-5-yl)methyl]-8-fluoro-4-(1-methyl-1H-pyrazol-4-yl)quinoline-2-carboxamide], which IC50 is on record?
Answer: 36 nM

Question: Cc1cc(Cc2ccc3c(-c4cnn(C)c4)cc(C(N)=O)nc3c2F)cc(C)n1 [Example 7-34, 7-[(2,6-dimethylpyridin-4-yl)methyl]-8-fluoro-4-(1-methyl-1H-pyrazol-4-yl)quinoline-2-carboxamide] was tested. Which IC50 did it give?
Answer: 39 nM
